Values of other authors as cited in article PMC9930120 (Journal of Chemical Information and Modeling, 2023).

Amino acid sequences for entries named in this document (tags omitted).
UniProt P34972, whole entry: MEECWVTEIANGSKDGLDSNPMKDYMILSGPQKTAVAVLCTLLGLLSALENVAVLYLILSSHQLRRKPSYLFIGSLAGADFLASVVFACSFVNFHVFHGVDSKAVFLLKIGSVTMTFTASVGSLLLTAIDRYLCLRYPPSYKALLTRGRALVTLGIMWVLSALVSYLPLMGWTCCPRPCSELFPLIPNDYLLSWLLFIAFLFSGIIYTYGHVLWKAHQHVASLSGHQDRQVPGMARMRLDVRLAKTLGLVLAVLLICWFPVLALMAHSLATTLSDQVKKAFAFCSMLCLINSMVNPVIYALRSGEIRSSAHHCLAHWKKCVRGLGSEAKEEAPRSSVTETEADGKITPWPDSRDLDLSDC

Target: human CB2 (Homo sapiens, UniProt P34972)
Details: cited from earlier work

For `Cc1c(C(=O)NN2CCCCC2)nn(-c2ccc(Cl)cc2Cl)c1-c1ccc(I)cc1` [AM-251], the Ki is given as 0.11 µM.
